Yeast mating assay 2: variants of the scFv Ab-95

Antigen: PDVDLGDISGINAS, a 14-residue peptide of the SARS-CoV-2 spike HR2 region.

Each scFv is VH, the linker GGGGSGGGGSGGGGS, VL, as in the parent Ab-95, and differs from it in the CDRs of the light chain only.
VH: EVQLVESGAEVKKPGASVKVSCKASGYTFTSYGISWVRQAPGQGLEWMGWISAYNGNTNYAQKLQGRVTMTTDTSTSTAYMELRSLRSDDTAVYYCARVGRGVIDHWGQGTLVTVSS
VL: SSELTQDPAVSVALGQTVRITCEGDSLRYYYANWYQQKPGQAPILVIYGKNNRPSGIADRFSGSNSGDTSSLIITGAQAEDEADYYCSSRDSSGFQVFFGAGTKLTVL

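Phage display of a naive human antibody library on the peptide gave the parent. AAYL52 was designed without a model: most single CDR substitutions and a random sample of double and triple ones. The assay is AlphaSeq: two haploid yeast populations carry antibody and antigen on their surface. Pairs that bind mate more often; barcode pairs of the diploids are counted by sequencing. Scores were corrected for input abundance and mapped to Kd with protein pairs of known affinity run in the same pool. There are three technical replicates.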

Each variant is given by its three light chain CDRs, as the data file delimits them; those of the parent are EGDSLRYYYAN, GKNNRPS, SSRDSSGFQVF. Every variant below is changed at V97 of the VL (sequential numbering). Numbers give log10(Kd / nM), so 0 is 1 nM and 3 is 1 µM. Smaller is tighter. Averages over replicates are reported, and they cover detected replicates only. A pair that was not seen in any replicate is written "not detected"; this usually means weak binding, but a binder can also be missed. Parent in this assay: reference entry 2.31, copy in this library 2.25. Background: pairings of library AAYL52 with three empty control strains gave a value in 28% of cases (median 3.91, 5th percentile 2.90). Values in that range, when seen in few replicates, are hard to tell from nonspecific mating.

| CDR-L1 | CDR-L2 | CDR-L3 | mean, log10 nM | replicates with signal |
|---|---|---|---|---|
| EGDSLRKYYAN | GSNNRPS | SSRDSSGFQNF | 1.81 | 3/3 |
| EGDKLRYYYAN | GKNNRPS | SSRDSSGFRKF | 4.13 | 1/3 |
| EGDSLAYYYAN | GKNNRPS | SSRDSSGFQQF | not detected | 0/3 |
| EGDSLRFYKAN | GKNNRPS | SSRDSSGFQCF | 2.06 | 3/3 |
| EGDSLRYYYAN | GKNNRPS | SERDGSGFQHF | 2.66 | 3/3 |
| EGDSLRYYYAN | GKNNRPS | SSRVSSGFQNF | not detected | 0/3 |
| EGDSLRYYYAY | GKNNRVS | SSRDSSGFQMF | not detected | 0/3 |
| EGDSLRYYYAN | GKNNRPS | SSPDSSGFQKF | 3.49 | 2/3 |
| EGDSVRYYYAN | GKNNRPS | SSRDSSGIQCF | 4.25 | 2/3 |
| ERDSLRYYYAN | GKNNFPS | SSRDSSGFQAF | 3.98 | 3/3 |
| EGDSLRYYYAN | GKNNRPP | SHRDSSGFQKF | not detected | 0/3 |
| EGDSPRYYYAN | GKNNRPN | SSRDSSGFQMF | not detected | 0/3 |
| EGDSLRYYYAN | GKNNRPS | SSRCSSGFQNV | 2.48 | 3/3 |
| EGDSLRYAYAI | GKNNRPS | SSRDSSGFQDF | 4.07 | 1/3 |
| GGDSLRYYYAN | GKNNRPS | SSRDISGFQCF | 3.21 | 2/3 |
| EGDSLRYYYAN | GKNNRPS | SEVDSSGFQRF | 4.97 | 1/3 |
| EGDSLEYYYAN | GKNNRPS | SSRDSSGFYFF | 2.75 | 1/3 |
| EGDSTRYYYAN | GKNNRPS | SSRDSSGFQDV | 3.37 | 3/3 |
| EGDSLRNYYAN | GKNNPPS | SSRDSSGFQMF | 3.63 | 2/3 |
| EGDSGRYYYAN | GKNNRPS | SSRDSSGFQEF | 4.35 | 1/3 |
| EGDSLRYYYAC | GKNNRPS | SSRDSSGFCAF | 5.63 | 1/3 |
| VGDSLRYYYAN | GKNNRKS | SSRDSSGFQHF | 3.08 | 2/3 |
| EGDSLRYYYAN | GKNYMPS | SSRDSSGFQWF | 3.76 | 2/3 |
| EGDSLRYYYIN | GKNNRPS | SSRDSSGRQMF | 4.08 | 1/3 |
| EGDSLRYYYAN | GKINRPS | SSRDSSGFRTF | 3.52 | 1/3 |
| EGDSLLYYYAN | GKNNRPS | SERDSSGFQRF | 2.12 | 3/3 |
| EGDSLRYYYAN | GKNNRPG | SSRQSSGFQTF | 3.37 | 2/3 |
| EGDSLRYYYAN | GKNNRPS | SSRDSMGFQSF | 2.67 | 2/3 |
| EGDSLRYYYAN | GKNNWPS | SMRDSSGFQRF | not detected | 0/3 |
| EGDSLRYYYAQ | GINNRPS | SSRDSSGFQGF | 5.15 | 1/3 |
| EGDSLRYYYAN | DKNNRPS | SSRDSSGHQRF | not detected | 0/3 |
| EGDSLRYYKAN | GKNNRPS | SSRLSSGFQGF | 2.77 | 3/3 |
| EGDSLRYYYAN | GKINRPS | SSRYSSGFQIF | 5.56 | 1/3 |
| EGDSLLYYYAN | GKNVRPS | SSRDSSGFQIF | 2.98 | 3/3 |
| EGDALRYYYAN | GKCNRPS | SSRDSSGFQNF | 4.55 | 1/3 |
| EGDSLRYYYAN | THNNRPS | SSRDSSGFQSF | 4.42 | 2/3 |
| EGDSYQYYYAN | GKNNRPS | SSRDSSGFQGF | not detected | 0/3 |
| EGCSLRYYYAN | GKNNRPS | KSRDSSGFQSF | 3.95 | 1/3 |
| EGDSLRYYHAN | GKNNRPS | SSRDSSGFRDF | 3.90 | 2/3 |
| EGDSLRYYYAN | GKNSRPS | SSRDSSGFPRF | 2.51 | 3/3 |
| EGDLLRYYYQN | GKNNRPS | SSRDSSGFQAF | 4.09 | 3/3 |
| EGDSLRIYYAN | GKNNRPS | SSRDSSGVQAF | 5.21 | 1/3 |
| EGDSLRYYYAN | GKMNWPS | SSRDSSGFQRF | 4.30 | 2/3 |
| EGDSLVPYYAN | GKNNRPS | SSRDSSGFQMF | 3.80 | 1/3 |
| EGDSLGTYYAN | GKNNRPS | SSRDSSGFQLF | 2.83 | 3/3 |
| EGDSLRYYYAN | GKNNRPS | PSTDSSGFQFF | 3.47 | 1/3 |
| TGDSLRYYYAN | GKNNRPS | SSRNSSGFQGF | 2.54 | 3/3 |
| EIDSLRYYYAN | GKNNRPS | SSRDSSGFQPF | 2.71 | 3/3 |
| EGDSLRYYYAN | GKNNRPS | SSRLYSGFQFF | not detected | 0/3 |
| EKDSLRYYYAN | GDNNRPS | SSRDSSGFQAF | 1.69 | 3/3 |
| EGDSLRYYYAN | GKNNRSS | SSRRSSGFQWF | 2.09 | 3/3 |
| EGDSLRYYYAQ | GKNNLPS | SSRDSSGFQMF | 3.61 | 1/3 |
| EGDSLRYYYAN | GKNNRPS | SSRDSSWFQFM | 3.01 | 3/3 |
| EGDCLRYYYAN | GKNNRPS | SSRDSSGFNHF | 4.16 | 1/3 |

The last 4 entries again:

{"CDR-L1": "EGDSLRYYYAN", "CDR-L2": "GKNNRSS", "CDR-L3": "SSRRSSGFQWF", "mean, log10 nM": "2.09", "replicates with signal": "3/3"}
{"CDR-L1": "EGDSLRYYYAQ", "CDR-L2": "GKNNLPS", "CDR-L3": "SSRDSSGFQMF", "mean, log10 nM": "3.61", "replicates with signal": "1/3"}
{"CDR-L1": "EGDSLRYYYAN", "CDR-L2": "GKNNRPS", "CDR-L3": "SSRDSSWFQFM", "mean, log10 nM": "3.01", "replicates with signal": "3/3"}
{"CDR-L1": "EGDCLRYYYAN", "CDR-L2": "GKNNRPS", "CDR-L3": "SSRDSSGFNHF", "mean, log10 nM": "4.16", "replicates with signal": "1/3"}

From the AlphaSeq antibody data of Engelhart et al. 2022 (doi:10.1038/s41597-022-01779-4), copy in the FLAb collection.